Results as given in patent US20260132141A1, “PROTEIN PHOSPHATASE 2A ACTIVATORS” (University of Florida Research Foundation, Incorporated, priority 2022, published 2026).

Tests used:
[1] = system: NCI-60 panel of cancer cell lines; experiment: NCI-60 panel screen; conditions: screened at 10 μM; tested form: bromide
Protocol: FIG. 9 depicts the results from PPA24 screened at 10 μM in the NCI-60 panel of cancer cell lines, indicating an ability to decrease cell viability in most but not all cancer cell lines tested. The varying responses per cell line indicates PPA24 having selectivity towards certain cellular characteristics.
FIG. 10 depicts the results from PPA27 screened at 10 μM in the NCI-60 panel of cancer cell lines, indicating a selectivity regarding the cancer cell line in which PPA27 can induce an effect.

HCT116 cells [2] = experiment: oxidative stress (ROS) analysis, Muse Cell Analyzer; conditions: HCT116, 24 hrs at 5 μM; tested form: bromide
Protocol: FIG. 13 depicts analysis of Oxidative Stress initiated by PPA24 in CRC. HCT116 cells were treated with PPA24 at 2.5 or 5 μM for 3,6, or 24 h before measuring oxidative stress. ROS (+) cells are indicated as M2. ROS (−) cells are indicated by M1 in the above graphs. All cells were analyzed with a Muse Cell Analyzer.
(§1) Though the exact role oxidative stress and PP2A play together is not known, in some cases reactive oxygen species (ROS) increase, decrease, or have no effect on PP2A activity. There have been links between PP2A activation leading to an increase in oxidative stress induced apoptosis. Due to this link, the ability of PPA24 to induce oxidative stress in HCT116 cells was investigated. […] This coincides with the previous apoptosis data indicating significant cell death occurring at these same conditions. (FIG. 13)

HCT116 cells [3] = experiment: combination cell viability (checkerboard assay, combination index); conditions: CRC cells, with oxaliplatin and 5-FU; tested form: bromide
From the text: FIGS. 15A-15B depict cell viability data measuring the combination index of PPA24 with Gemcitabine in HCT116. FIG. 15A depicts a heatmap of cell viability for HCT116 cells treated for 48 hrs with PPA24 and Gemcitabine in a checkerboard assay. FIG. 15B depicts combination index (CI) analysis of PPA24 with Gemcitabine in HCT116 cells, showing synergy occurring with this combination. The CI analysis was completed using SiCoDEA.
The combination of PPA24 and Gemcitabine, a clinically used cancer drug, in the CRC cells, worked synergistically to decrease the cell viability at lower concentrations than possible when used alone.

CRC cells = experiment: apoptosis measurement in CRC cells; conditions: 24 hrs at 5 μM; tested form: bromide
Protocol: FIGS. 7A-7B depict measurement of apoptosis in CRC cells after treatment with PPA24, PPA27, iHPA1, and NSC49L. All the cells were treated with PPA-24, PPA-27, iHAP1, and NSC49L at concentrations of 2.5, 5, and 10 M for 24 hrs. FIG. 7A depicts apoptosis measured through Caspase 3/7 and 7-AAD staining. FIG. 7B depicts apoptosis measured through Annexin V and 7-AAD staining. Apoptosis measurement was obtained using a Muse Cell Analyzer.
Apoptosis was measured in CRC cells after treatment with PPA24, PPA27, iHPA1, and NSC49L. All the cells were treated with PPA-24, PPA-27, iHAP1, and NSC49L at concentrations of 2.5, 5, and 10 μM for 24 hrs. Apoptosis was measured through either Caspase 3/7 and 7-AAD staining or Annexin V and 7-AAD staining. Apoptosis measurement was obtained using a Muse Cell Analyzer.
as §1

[4] = system: normal keratinocyte (HaCaT) cells; experiment: cell viability screen in noncancerous HaCaT cells; type: cell-based; conditions: HaCaT versus CRC cells; tested form: bromide
From the text: FIGS. 14A-14C depict cell viability screen of PPA24, PPA27, iHAP1, and NSC49L in normal keratinocyte (HaCaT) (FIG. 14A) and epithelial (FHC) (FIG. 14B) cells, where the compounds were able to showcase selectivity to cancerous cells vs. noncancerous cells. FIG. 14C depicts IC50 concentrations of the compounds in the cells. Analyses were done using GraphPad Prism 7.0 Software.
The compounds PPA24, PPA27, iHAP1, and NSC49L were screened in noncancerous cell lines to observe the selectivity these compounds have towards cancerous cells by assessing the differences in IC50 concentrations. […] The preliminary data presented in the FHC cells, indicated more tolerability towards all of the compounds, with the exception of PPA27, as compared to CRC and HaCaT cells (FIGS. 14A-14C).

Clc1ccc2c(c1)N(CCCC[N+]13CN4CN(CN(C4)C1)C3)c1ccccc1S2
effect on cell viability in the NCI-60 panel [1]: decrease cell viability in most but not all cancer cell lines tested | ROS positive cells (HCT116 cells [2]): an increase in ROS positive cells | synergy in combination with oxaliplatin and 5-FU (HCT116 cells [3]): no synergy was observed | apoptosis / cell death (CRC cells): significant cell death | IC50 in HaCaT cells relative to the IC50 concentration range in CRC cells [4]: approximately 2 fold
